Test results taken from patent US20260382616A1, “TREATMENT METHODS FOR SUBJECTS WITH NON-SMALL CELL LUNG CANCER HAVING AN ABERRATION IN EGFR” (published 2026).

Legend:
[1] = system: mutant EGFRs L718Q+ex19del+T790M or L718Q+L858R+T790M; conditions: cell-based; cited from earlier work
[2] = system: mutant EGFRs with mutations in exon 18 or exon 21 (G719A, G719S, G719C, E709K, E709A, L861Q); conditions: cited from earlier work
[3] = system: LXF 2478 and NCI-H1975 EGFR D770_N771insSVD cells; assay: Mechanism in NSCLC cells with EGFR exon 20 insertions
H1975insSVD [4] = assay: H1975insSVD xenograft, TAS6417 and/or CBDCA/pemetrexed; conditions: for Tumor volume: mean
skin tissue with WT EGFR = assay: Effect on skin tissue with WT EGFR; conditions: in vivo
NCI-H23 cells = assay: Growth inhibition of KRAS mutant cell line NCI-H23
[5] = system: NCI-H1975 EGFR D770_N771insSVD (H1975insSVD); assay: H1975insSVD xenograft after recurrence on amivantamab; conditions: TAS6417 200 mg/kg daily p.o., amivantamab-relapsed tumors
EGFR = conditions: biochemical assay; cited from earlier work
NCI-H460 cells = assay: Growth inhibition of KRAS mutant cell line NCI-H460
[6] = Phase 2b REZILIENT1 module C, safety; conditions: 45 patients, 100 mg BID
H1975insSVD [7] = assay: H1975insSVD xenograft, TAS6417 and/or carboplatin; conditions: for Tumor volume: mean ± SE
[8] = Day 1, TAS6417 100 mg/kg/day po qd
[9] = Day 15, TAS6417 100 mg/kg/day po qd

In the case of `C=CC(=O)N[C@H]1C=C(C)c2c(-c3cnc4ccccc4c3)c3c(N)ncnc3n2C1`, the “Inhibition of phosphorylation of L718Q combination mutants” value [1] is listed as “intensive cellular potency”, the “Inhibition of phosphorylation of mutant EGFRs” value ([2]; G719A, G719S, G719C, E709K, E709A, L861Q) is listed as “intensive cellular potency” and the “Activity compared with erlotinib and osimertinib” value ([2]; inhibition of phosphorylation, exon 18 / 21 mutants) is listed as “higher than erlotinib and osimertinib”. For the same molecule, the “Caspase 3/7” value [3] was “induction of caspase 3/7”, the “Growth of NSCLC cells with EGFR exon 20 insertions” value [3] was “suppressed the growth” and the “Phosphorylation of EGFR and its downstream molecules” value [3] was “inhibition of the phosphorylation of EGFR and its downstream molecules”. The Tumor volume (H1975insSVD [4]; [8]) was 192.4 mm^3, the Tumor volume (H1975insSVD [4]; [9]) was 322.8 mm^3 and the Tumor volume (H1975insSVD [4]; Day 22, TAS6417 100 mg/kg/day po qd) was 846.5 mm^3. The “Tumor volume after 22 days” value (H1975insSVD [4]; alone or in combination with CBDCA/pemetrexed) was “dramatically smaller tumor volume after 22 days”, the “Effect on skin tissue with WT EGFR” value (skin tissue with WT EGFR) was “spares skin tissue with WT EGFR” and the GI50 (NCI-H23 cells) was > 3 µM. The “Reduction in tumor growth vs Amivantamab” value [5] was “significant reduction in tumor growth”, the “Inhibition of in vitro phosphorylation activity” value (EGFR) was “inhibited the in vitro phosphorylation activity” and the GI50 (NCI-H460 cells) was > 3 µM. The “Grade 3 TRAE anemia” value [6] was 4, the “Grade 3 TRAE pneumonitis/ILD” value [6] was 3 and the “Grade 3 TRAE rash” value [6] was 3. For the same molecule, the “Grade 4 or 5 TRAEs” value [6] was “no grade 4 or 5 TRAEs”, the TRAE anemia [6] was 24% and the TRAE dermatitis acneiform [6] was 16%. For the same molecule, the TRAE nausea [6] was 16%, the TRAE paronychia [6] was 36% and the TRAE rash [6] was 38%. It also gave a TRAE stomatitis [6] of 11%, a Tumor volume (H1975insSVD [7]; [8]) of 201.8 ± 91. mm^3 and a Tumor volume (H1975insSVD [7]; Day 1, TAS6417 200 mg/kg/day po qd) of 200.1 ± 8.8 mm^3. For the same molecule, the Tumor volume (H1975insSVD [7]; [9]) was 409.5 ± 45.8 mm^3, the Tumor volume (H1975insSVD [7]; Day 15, TAS6417 200 mg/kg/day po qd) was 131.4 ± 18.2 mm^3 and the “Tumor volume after 15 days” value (H1975insSVD [7]; alone or in combination with carboplatin) was “dramatically smaller tumor volume after 15 days”.
